Laboratory results: ChEMBL document CHEMBL1128541 (J Med Chem, 1995)

Molecular target: cGMP-specific 3',5'-cyclic phosphodiesterase (Homo sapiens, UniProt O76074)
Assay: Inhibitory activity against phosphodiesterase 5 from human platelets

`Cl.Cl.Clc1ccc2nc(-n3ccnc3)nc(NCc3ccccc3)c2c1` gave an IC50 of 2.8 nM.
